{"source": "patent US20210161883A1", "about": "“EZH2 INHIBITOR-INDUCED GENE EXPRESSION” (Constellation Pharmaceuticals, Inc., priority 2017, published 2021)", "test_system": "global H3K27me3 levels in Karpas-422 GCB-DLBCL cells", "assay": "H3K27me3 western blotting in Karpas-422 cells treated with EZH2 inhibitors", "assay_type": "cell-based, human", "conditions": "1.5 μM, 4 days, vs DMSO, total H3 as control", "experimental": "Lymphoma cell lines were grown in 10 ml cultures (as described in 2.1). […] After drug treatment, cells were centrifuged at 500×g for 3 min, supernatant was removed, and cell pellet was resuspended in 0.75 ml Trizol Reagent (Life Technologies, catalog #15596-026). RNA was extracted as per the manufacturer's protocol, resuspended in nuclease-free water, quantified using a NanoDrop 2000 UV-vis spectrophotometer (Thermo Scientific), and sent to Ocean Ridge Biosciences (http://www.oceanridgebio.com/) for RNA-sequencing. […]\nIn order to detect potential EZH2 inhibitor-mediated gene expression changes that could serve as a manifestation of target engagement, Karpas-422 GCB-DLBCL cells were treated with vehicle (dimethyl sulfoxide; DMSO) or Compound 1 for 4 days. […] The samples that were committed to RNA-sequencing were analyzed for changes in H3K27me3 levels by western blotting. […]", "data": [{"compound": "CCN(c1cc(-c2ccc(CN3CCOCC3)cc2)cc(C(=O)NCc2c(C)cc(C)[nH]c2=O)c1C)C1CCOCC1", "note": "[EPZ-6438]", "values": [{"measurement": "global H3K27me3 levels (western blotting)", "value": "substantial loss of H3K27me3"}]}]}
